Among the data in PubChem BioAssay AID588692 (Broad Institute, 2011) are reporter increase values, retold here.

This is a selection; strong and weak results do not stand in their true shares. Activity calls are given as the source filed them.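 How the source made its calls: active means mean luciferase reporter signal, scaled so untreated is 0 and the glycosylation-blocking control 100, at or above a set limit in every replicate; inconclusive means mean reaches the limit but not every replicate does; inactive means mean below the limit.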

The test can be described thus: D54 reporter luminescence gain compounds – D54 ERlucT cells, set 2, N-linked glycosylation inhibitor project, primary screen (AID 588692).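 Further: luciferase carries N-glycosylation sites so blocking glycosylation raises the light; 0% = median of neutral control wells and 100% = median of 100 nM tunicamycin wells.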 To be noted: D54 ERlucT glycosylation luciferase reporter, 24 h; at 12.5 µM; hits give high values; percent of 100 nM tunicamycin response. On the technique in general: A reporter such as luciferase makes a cellular process visible.
On to `COc1cc(I)ccc1[As](=O)(O)O`, for which the reporter increase is inactive: 0.129%.
In the case of `COc1ccc2nc(NP(=O)(c3ccccc3)c3ccccc3)sc2c1`, the reporter increase is inactive: 0.279%.
Turning to `O=P1(N(CCCl)CCCl)OCCCN1CCCl` (stereo not given), the reporter increase is inactive: 1.39%.
Regarding `O=P1(N(CCCl)CCCl)Nc2ccccc2N1`, the reporter increase was inactive: -0.745%.
For `Cc1cc(=O)[nH]c(N[N+](=O)[O-])n1`, the reporter increase was inactive: 0.704%.
With `O=C(OC1CN2CCC1CC2)C12CC3CC(CC(C3)C1)C2` (stereo not given) the figure was inactive: 3.4%; with `Cc1c2c(nc3ccccc13)SC(C(Cl)Cl)C2` (stereo not given), inactive: 1.35%.
As for `O=[N+]([O-])c1cc([N+](=O)[O-])c(-c2ccn[nH]2)s1`, the reporter increase was inactive: 3.84%.
On to `CCN(CC)C(=S)SC(NC=O)C(Cl)(Cl)Cl` (stereo not given), for which the reporter increase is inactive: 1.04%.
Consider `O=C(OC1CN2CCC1CC2)c1cccc2[nH]cnc12` (stereo not given), for which the reporter increase is inactive: -5.31%.
As to `CC(C)NC(=O)NP(=O)(Oc1ccccc1)Oc1ccccc1`, the reporter increase is inactive: -1.91%.
On to `CC(C)c1ccc(OP(=O)(Nc2ccccn2)Oc2ccccc2F)cc1` (stereo not given), for which the reporter increase is inactive: -3.35%.
`COC(=O)C1(C)COP(=O)(N2CCCCCC2)OC1` (stereo not given): the reporter increase was inactive: -7.7%.
Turning to `ClCCSc1nnc(-c2cccnc2)o1`, the reporter increase is inactive: 1.77%.
Consider `Cc1ccc2nc3c(c(C)c2c1)CC(C(Cl)Cl)S3` (stereo not given), for which the reporter increase is inactive: 1.09%.
On to `Cc1ccc(OP(=O)(Nc2ccc([N+](=O)[O-])cn2)Oc2ccc(C)cc2)cc1`, for which the reporter increase is inactive: -1.21%.
With `COc1cc(C(=O)NCC2(N3CCOCC3)CCCCC2)ccc1OCC(C)C` the figure was inactive: -6.36%.
With `O=[N+]([O-])c1ccc(-c2cc([N+](=O)[O-])c(O)c([N+](=O)[O-])c2)cc1` the figure was inactive: 0.385%; with `O=[As](O)(c1ccc(O)cc1)c1ccccc1O`, inactive: 2.35%.
In the case of `C[As](=O)(O)c1cccc(C(=O)O)c1`, the reporter increase is inactive: 1.75%.
